# Literature values as cited in publication PMC3668559 (Journal of medicinal chemistry, 2011).
# System: AR AF2
# Conditions: cited from earlier work
smiles,measurement,value
"O=C(O)Cc1cc(I)c(Oc2ccc(O)c(I)c2)c(I)c1 [Compound 5, 3,3′,5 –triiodo thyroacetic acid]",effect on AF2 peptide binding / co-activator interaction,inhibit AF2 peptide binding
